System: human MC1R variants (V60L, V92M, R151C, R163Q)
Experiment: Cyclic AMP assay in HEK293 cells stably expressing hMC1R variants
Details: response of V60L and R151C mutants weaker than wild type

## COC[C@H]1CN(C(=O)[C@]2(F)CN(C3CCCC3)C[C@H]2c2ccc(OC)cc2)C[C@@H]1c1ccc(C(F)(F)F)cc1N1CCC(C(=O)O)CC1 [MT‐7117, dersimelagon]
  Intracellular cAMP in cells with variants of MC1R and wild type: increased cAMP in a concentration‐dependent manner

Reference: PMC9060023 (Skin Health and Disease, 2021)
